# Experimental properties from OPERA 2.9

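These are experimental values that the OPERA curators gathered from public databases to train and test their QSAR models. A listed value is a point estimate from one report or more. Method and conditions are not stated for these values. Where a salt, mixture or single isomer is drawn, the source does not say that exactly this form was tested. Some entries may be limits or estimates that an upstream database listed as plain numbers.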

Melting points are in °C. Boiling points are in °C, nominally at 760 mmHg. logP is the log10 of the octanol-water partition coefficient; higher is more lipophilic. Water solubility is log10 of mol/L, nominally at 25 °C; higher is more soluble. Vapor pressure is log10 of mmHg; the set covers 15 to 30 °C, mostly 20 to 25 °C. Henry's law constant (air-water partitioning) is log10 of atm·m3/mol, nominally at 25 °C. fu is the fraction unbound in human plasma, from 0 to 1. Cells with "–" have no entry in this list.

| melting point (°C) | bp (°C) | logP (octanol/water) | log S (log10 mol/L) | log vapor pressure (log10 mmHg) | log H (log10 atm·m3/mol) | fu | structure (SMILES) | name |
|---|---|---|---|---|---|---|---|---|
| -95.5 | 224.2 | 2.5 | – | -0.71 | – | – | COCC(CCC(C)C)(COC)C(C)C | 3,3-Bis(methoxymethyl)-2,6-dimethylheptane |
| – | – | – | -1.116 | – | – | 0.55 | C[C@H](N)[C@H](O)c1cccc(O)c1 | Metaraminol |
| 256.2 | – | 0.6 | -3.113 | -9.907 | – | – | O=c1[nH]c2ccccc2c(=O)n1CCO | 3-(2-Hydroxyethyl)-1H,3H-quinazoline-2,4-dione |
| – | – | – | – | -9.227 | -10.86 | – | Cc1ccc(C(C)NC(=O)[C@@H](NC(=O)OC(C)C)C(C)C)cc1 (some centres undefined) | Iprovalicarb |
| 182 | – | 2.49 | -6.214 | – | – | – | CS(=O)(=O)Oc1ccc(Nc2ccc(O)c3c2C(=O)c2ccccc2C3=O)cc1 | – |
| 106 | – | – | -6.907 | -3.943 | – | – | Clc1ccccc1-c1cc(Cl)c(Cl)c(Cl)c1 | – |
| – | – | – | -3.485 | -2.625 | – | – | O=c1c(-c2ccccc2)c1-c1ccccc1 | Diphenylcyclopropenone |
| – | – | 1.6 | -3.469 | – | – | – | CNS(=O)(=O)CCc1ccc2[nH]cc(C3CCN(C)CC3)c2c1 | Naratriptan |
| – | 365 | 3.75 | -5.07 | -7.377 | – | – | O=C(OCCOC(=O)c1ccccc1)c1ccccc1 | 1,2-ETHANEDIOL, DIBENZOATE |
| – | – | 2.4 | -1.506 | – | – | – | C=CC(O)C#CC(C)(C)C (stereo not given) | 6,6-dimethylhept-1-en-4-yn-3-ol |
| – | – | – | -4.628 | -5.377 | – | – | CCOC(=O)c1nn(-c2ccc(OC)cc2)c2c1CCN(c1ccc(N3CCCCC3=O)cc1)C2=O | – |
| – | 239.5 | 5.24 | – | -1.524 | – | – | C=C(C)C(=O)OCCCCCCCC | Octyl methacrylate |
| – | – | 5.211 | – | -7.648 | – | – | CCCCCOC(=O)c1c(Cl)c(Cl)cc(Cl)c1OC(=O)C(=O)Oc1c(Cl)cc(Cl)c(Cl)c1C(=O)OCCCCC | Bis(2,4,5-trichloro-6-carbopentoxyphenyl) oxalate |
| 309 | – | 7.1 | -7.134 | – | – | – | O=C1c2c(Cl)c(Cl)c(Cl)c(Cl)c2C2=Nc3cccc4cccc(c34)N12 | C.I. Solvent Red 135 |
| – | – | – | -1.407 | 1.364 | – | – | COC(F)(F)C(Cl)Cl | Methoxyflurane |
| – | – | 2.2 | -2.244 | – | – | – | O=C(O)c1cc(O)cc(C(=O)O)c1 | 5-Hydoxyisophthalic acid |
| – | – | – | -5.7 | -3.64 | – | – | CCCCC(CC)COC(=O)c1ccccc1O (stereo not given) | 2-Ethylhexyl salicylate |
| 122 | – | 4.45 | – | – | – | – | CN1CCCCC1CCN1c2ccccc2Sc2ccc(S(C)(=O)=O)cc21 (racemic) | – |
| – | – | – | -5.48 | -9.001 | – | – | CC(C)(NC(=O)NCc1ccccc1Cl)c1ccccc1 | Cumyluron |
| – | 358.9 | 3.99 | – | -11.18 | – | – | CC(S)CC(=O)OCC(COC(=O)CC(C)S)(COC(=O)CC(C)S)COC(=O)CC(C)S (stereo not given) | – |
| – | – | 3.55 | -9.13 | – | – | – | Brc1c(Br)c(Br)c(CCc2c(Br)c(Br)c(Br)c(Br)c2Br)c(Br)c1Br | 1,1'-Ethane-1,2-diylbis(pentabromobenzene) |
| 17.85 | – | – | – | -6.227 | – | – | N#CCCNCCCCCCNCCC#N | 3,3'-(Hexane-1,6-diyldiazanediyl)dipropanenitrile |
| – | – | 6.47 | – | -0.198 | – | – | C=C[Si]1(C)O[Si](C)(C=C)O[Si](C)(C=C)O[Si](C)(C=C)O1 (stereo not given) | 1,3,5,7-Tetramethyl-1,3,5,7-tetravinylcyclotetrasiloxane |

From the experimental data distributed with OPERA 2.9.